Source: patent publication US20260176320A1, “MODULATORS OF G-PROTEIN COUPLED RECEPTORS” (priority 2018, published 2026)

The chains behind the UniProt entries cited, without tags or fusion partners. Residues count along the entry.
UniProt P43220, 24-463: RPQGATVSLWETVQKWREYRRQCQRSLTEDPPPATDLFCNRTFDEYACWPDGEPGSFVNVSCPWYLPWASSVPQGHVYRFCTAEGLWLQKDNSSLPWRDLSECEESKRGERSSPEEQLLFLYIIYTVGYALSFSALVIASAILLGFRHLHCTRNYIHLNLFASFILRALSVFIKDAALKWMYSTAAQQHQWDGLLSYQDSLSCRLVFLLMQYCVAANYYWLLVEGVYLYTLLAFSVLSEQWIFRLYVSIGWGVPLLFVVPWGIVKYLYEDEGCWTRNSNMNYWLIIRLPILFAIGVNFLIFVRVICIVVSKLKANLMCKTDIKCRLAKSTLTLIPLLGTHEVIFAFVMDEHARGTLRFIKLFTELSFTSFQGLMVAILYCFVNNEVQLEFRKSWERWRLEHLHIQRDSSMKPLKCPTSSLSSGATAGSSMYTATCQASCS

Assays:
Type in all cases: cell-based
GLP-1R [1] = molecular target: T1, GLP-1R (Homo sapiens, UniProt P43220); experiment: HitHunter cAMP assay (GLP-1R)
Method: (§1) Suspension cells were harvested and resuspended in 1×HBSS (+10 mM HEPES, 625 μM IBMX, 0.2% BSA) according to the following procedure: 5 μL of 2× cell suspension+1× antibody were added to each well, where the optimal cell density was 10,000 cells per well in a low volume 384-well plate. Agonist serial dilutions in a separate 384 well dilution plate in a 22-point series of 2× dilutions of agonist in DMSO were performed as follows. 80 μL of the highest concentration of Agonist/DMSO was added to well No. 1. 40 μL was removed from well No. 1 and added it to well No. 2, followed by gentle mixing. […] This process was repeated until well No. 22. Additional serial dilutions for additional agonists were set up in a similar manner. 50 nL of each 2× agonist serial dilution was added in duplicate to the designated agonist rows of the assay plate using the Labcyte ECHO. Assay plate was incubated for 30 minutes at room temperature. Following agonist incubation, 5 μL of cAMP Antibody Reagent was added to all wells. […] Plates were spun down briefly. Assay plate was incubated for 1 hour at room temperature in the dark for the immunocompetition reaction to occur. […] Plates were spun down briefly. Assay plate was incubated O/N at room temperature in the dark. Samples were read on Tecan i-control plate reader using luminescence mode with 300 ms integration time. Data analysis was performed using GraphPad Prism.

GIP-R = molecular target: T2, GIP-R (Homo sapiens, UniProt P48546); experiment: HitHunter cAMP assay (GIP-R)
T2 sequence (P48546 22-466): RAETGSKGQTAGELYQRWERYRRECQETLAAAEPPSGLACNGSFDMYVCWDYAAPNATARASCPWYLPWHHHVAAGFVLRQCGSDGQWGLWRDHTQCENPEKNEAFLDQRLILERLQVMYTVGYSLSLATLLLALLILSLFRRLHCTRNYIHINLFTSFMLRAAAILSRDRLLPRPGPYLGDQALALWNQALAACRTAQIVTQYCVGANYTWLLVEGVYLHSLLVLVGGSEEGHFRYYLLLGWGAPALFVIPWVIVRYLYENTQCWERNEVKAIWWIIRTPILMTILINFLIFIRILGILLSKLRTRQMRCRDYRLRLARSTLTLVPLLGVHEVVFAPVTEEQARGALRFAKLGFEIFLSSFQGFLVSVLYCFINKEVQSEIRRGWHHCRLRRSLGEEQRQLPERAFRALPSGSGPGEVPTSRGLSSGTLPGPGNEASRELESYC
Method: as §1

GLP-1R [2] = molecular target: T1, GLP-1R; experiment: PathHunter β-arrestin assay
Method: The effects of the chemical entities described herein on β-arrestin signaling and associated downstream processes (e.g., those delineated above) can be assessed using conventional methods, e.g., PathHunter β-arrestin Assay for determining β-arresting coupling (see Examples section). […] It has been shown that b-arrestin coupling is a key strep in receptor internalization and subsequent de-sensitization and attenuation of signaling.
5,000 cells were seeded in appropriate cell culture media per well in a low volume 384-well tissue culture plate. The assay plate was incubated with cells overnight at 37° C. and 5% CO2. The media was removed, and 5 μL of appropriate cell culture media containing 0.2% BSA was added. Agonist serial dilutions in a separate 384 well dilution plate in a 22-point series of 2× dilutions of agonist in DMSO were performed as follows. 80 μL of the highest concentration of Agonist/DMSO was added to well No. 1. 40 μL was removed from well No. 1, and added to well No. 2, followed by gentle mixing. […] This process was repeated until well No. 22. Additional serial dilutions for additional agonists were set up in a similar manner. 100 nL of each 2× agonist serial dilution was added in duplicate to the designated agonist rows of the assay plate using the Labcyte ECHO. […] Samples were read on Tecan i-control plate reader using luminescence mode with 100 ms integration time. […]

CCCCCCCCCCCCCCCC(=O)N[C@@H](CCC(=O)NCCCC[C@H](NC(=O)[C@H](CO)NC(=O)[C@@H]1CCCN1C(=O)[C@@H]1CCCN1C(=O)[C@@H]1CCCN1C(=O)[C@H](C)NC(=O)CNC(=O)[C@H](CO)NC(=O)[C@H](CO)NC(=O)[C@@H]1CCCN1C(=O)CNC(=O)CNC(=O)[C@H](CCCCN)NC(=O)[C@@H](NC(=O)[C@H](CC(C)C)NC(=O)[C@H](Cc1c[nH]c2ccccc12)NC(=O)[C@H](C)NC(=O)[C@@H](NC(=O)[C@H](Cc1ccccc1)NC(=O)[C@H](CCC(=O)O)NC(=O)[C@H](CCCCN)NC(=O)[C@H](C)NC(=O)[C@H](C)NC(=O)[C@H](CCC(N)=O)NC(=O)CNC(=O)[C@H](CCC(=O)O)NC(=O)[C@H](CC(C)C)NC(=O)[C@H](Cc1ccc(O)cc1)NC(=O)[C@H](CO)NC(=O)[C@H](CO)NC(=O)[C@@H](NC(=O)[C@H](CC(=O)O)NC(=O)[C@H](CO)NC(=O)[C@@H](NC(=O)[C@H](Cc1ccccc1)NC(=O)[C@@H](NC(=O)CNC(=O)[C@H](CCC(=O)O)NC(=O)CSCC(=O)NCCN1C(=O)CSC1=O)[C@@H](C)O)[C@@H](C)O)C(C)C)[C@@H](C)CC)C(C)C)C(N)=O)C(=O)O [Compound 73]
EC50 (GLP-1R [1]; Table 3): 0.1 to 1 nM
Emax (GLP-1R [1]; Table 3): 93%
EC50 (GLP-1R [1]; Table 3A): 0.1 to 1 nM
Emax (GLP-1R [1]; Table 3A): 93%
EC50 (GIP-R; Table 3): 10 to 100 nM
Emax (GIP-R; Table 3): 78%
EC50 (GIP-R; Table 3A): 10 to 100 nM
Emax (GIP-R; Table 3A): 78%
EC50 (GLP-1R [2]): > 1000 nM
